Earlier results in patent US20130251678A1, “BID DOSAGE REGIMEN FOR DEB025” (NOVARTIS AG, priority 2010, published 2013).

Conditions: in vivo; cited from earlier work

## Peg-IFNα2a: pegylated form of interferon alfa 2a with 40 kDa branched PEG, commercially available from Roche
  duration of sustained serum concentrations: 168 h
